Target: Kappa-type opioid receptor (Homo sapiens, UniProt P41145)
Test: Functional activity at human kappa opioid receptor expressed CHO cells by [35S]GTPgammaS binding assay
Type: cell-based
Details: filed as agonist

Protein sequences, listed by entry. Tags and fused reporters are not part of them. Lines headed by an entry give the natural chain unless they say otherwise; changes in a name come on top.
UniProt P41145: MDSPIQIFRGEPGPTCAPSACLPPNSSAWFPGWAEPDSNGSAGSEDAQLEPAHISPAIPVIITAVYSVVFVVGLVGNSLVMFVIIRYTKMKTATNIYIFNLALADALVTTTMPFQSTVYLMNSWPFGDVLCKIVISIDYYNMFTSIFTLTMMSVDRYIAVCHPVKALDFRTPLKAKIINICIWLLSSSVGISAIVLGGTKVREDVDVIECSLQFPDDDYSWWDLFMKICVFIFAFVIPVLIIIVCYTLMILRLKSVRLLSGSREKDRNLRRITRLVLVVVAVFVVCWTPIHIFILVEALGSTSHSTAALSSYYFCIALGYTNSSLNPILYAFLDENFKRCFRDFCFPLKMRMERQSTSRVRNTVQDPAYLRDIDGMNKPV

CN(C(=O)Cc1ccc(Cl)c(Cl)c1)[C@H]1CCCC[C@@H]1N1CCCC1
Activity: Agonist

— ChEMBL document CHEMBL1148605, “Synthesis and preliminary in vitro investigation of bivalent ligands containing homo- and heterodimeric pharmacophores at mu, delta, and kappa opioid receptors” (J Med Chem, 2006)
